Measured values as given in PubChem BioAssay AID435022 (Sanford-Burnham Center for Chemical Genomics, 2010).
This is a selection; strong and weak results do not stand in their true shares. Activity calls are given as the source filed them. No stated cut-off is given here; in the data, active means inhibition above about 35%; inactive means the rest.

assay: inhibitors of PMA/ionomycin-induced NF-kB reporter, 697 cells, primary screen, B-cell NF-kB inhibitor project, cell-based, luminescence, uHTS (AID 435022); conditions: 697 B-cell NF-kB luciferase reporter, 16 h, at 4 µM, active compounds read high

| Compound | inhibition |
| --- | --- |
| O=P1(Nc2ncccn2)COc2ccccc2OC1 | inactive: -36.9% |
| O=[As](O)(c1cccs1)c1cccs1 | inactive: -3.89% |
| Cc1ccc(OCC(=O)OC2CN3CCC2CC3)cc1 (stereo not given) | inactive: 3.63% |
| NS(=O)(=O)c1cccc(NC(=O)COC(=O)C(O)(c2ccccc2)c2ccccc2)c1 | inactive: 11.2% |
| O=P1(Nc2ccc(Br)cn2)COc2ccccc2OC1 | inactive: 11.3% |
| Nc1cccc([As](=O)(O)c2ccccc2)c1 | inactive: 13.1% |
| Cc1nn(-c2ccccc2)c2c1P(=O)(N1CCOCC1)N(C)C(c1ccccc1)=N2 (stereo not given) | inactive: 3.34% |
| Cc1ccc(C(=O)OC2CN3CCC2CC3)cc1 (stereo not given) | inactive: 16% |
| CC1CCC(C(C)C)C(OP(=O)(Nc2ccccn2)c2ccccc2)C1 (stereo not given) | inactive: 9.89% |
| O=C(/C=C/c1ccccc1)OC1CN2CCC1CC2 (stereo not given) | inactive: -5.32% |
| CN(C)C1(CNC(=O)c2ccc(S(C)(=O)=O)cc2)CCCCC1 | inactive: 4.3% |
| COc1ccccc1CNC(=O)COC(=O)C(O)(c1ccccc1)c1ccccc1 | inactive: -3.31% |
| O=[As](O)(c1ccccc1Br)c1ccccc1Br | inactive: 2.03% |
| CC1(CBr)Cn2c(nc3ccccc3c2=O)S1 (stereo not given) | inactive: 7.43% |
| CN(C(=O)Cc1ccc(Cl)c(Cl)c1)[C@@H]1CCCC[C@H]1N1CCCC1 | inactive: -11.3% |
| CC(C)/C=N\N=C(\N)N[N+](=O)[O-] | inactive: 3.55% |
| CCOP(=O)(Nc1ccc(C)cn1)OCC | inactive: 18% |
| CN(CCCl)Cc1cc(Cl)c(NC2=NCCN2)c(Cl)c1 | inactive: 11.2% |
| CCC1=CC2Cc3nc4ccc(Cl)cc4c(N)c3C(C1)C2 (stereo not given) | inactive: -24.5% |
| O=P1(Nc2ccccn2)COc2ccccc2OC1 | inactive: -31.1% |
| CCOP(=O)(NC(=NC(C)c1ccccc1)NC(C)c1ccccc1)OCC (stereo not given) | inactive: -27.8% |
| Clc1n[nH]nc1-c1nn[nH][15n]1 | inactive: 20% |
| CC(C)(C)C(=O)NC(Sc1ncccn1)C(Cl)(Cl)Cl (stereo not given) | inactive: 9.07% |
| CCCOP(=S)(Nc1nc(N)cc(=O)[nH]1)OCCC | inactive: 1.08% |
| Cc1ccc(NCCc2c([N+](=O)[O-])cc([N+](=O)[O-])cc2[N+](=O)[O-])cc1 | inactive: 6.65% |

| Compound | inhibition |
| --- | --- |
| COc1cc(C2NCCC3(OCCO3)C2(C)C)cc(OC)c1OC (stereo not given) | inactive: -3.82% |
| CCOP(=O)(Nc1cccc2ccccc12)OCC | inactive: -4.81% |
| O=[As](O)(O)c1cccnc1 | inactive: -15.9% |
| COc1cc(C(=O)NCC2(N3CCOCC3)CCCCC2)cc(Cl)c1OC(C)C | inactive: -17.1% |
| CS(=O)(=O)c1ccc(Cl)c(NC(=O)COC(=O)C(O)(c2ccccc2)c2ccccc2)c1 | inactive: -13.9% |
| O=C(OC1CN2CCC1CC2)c1ccc(Cl)cc1 (stereo not given) | inactive: -7.27% |
| Cc1cccc(OCC(=O)OC2CN3CCC2CC3)c1 (stereo not given) | inactive: 10.5% |
| O=[As](O)(c1cccc(O)c1)c1cccc(O)c1 | inactive: -9.36% |
| NC(=O)Nc1ccc([As](=O)(O)O)cc1 | inactive: -6.76% |
| O=[N+]([O-])c1ccc2c(c1)nnn2O | inactive: 10.7% |
| CN(C)C(=O)c1cc([N+](=O)[O-])cc2c1-c1c(cc([N+](=O)[O-])cc1[N+](=O)[O-])C2=O | inactive: -20.1% |
| CN(C(=O)Cc1ccc(Cl)c(Cl)c1)[C@H]1CC[C@@]2(CCCO2)C[C@@H]1N1CCCC1 | inactive: 4.05% |
| N#CCCN(C(=O)COC(=O)C(O)(c1ccccc1)c1ccccc1)c1ccc(F)cc1 | inactive: -17.7% |
| CN(C(=O)Cc1ccccc1)[C@@H]1CC[C@]2(CCCO2)C[C@H]1N1CCCC1 | inactive: 9.55% |
| CCOP1(=S)c2c(C)nn(CCC#N)c2N=C(c2ccc(F)cc2)N1C (stereo not given) | inactive: 10.9% |
| CS(=O)(=O)c1cc([N+](=O)[O-])c2no[n+]([O-])c2c1 | inactive: 2.07% |
| CCOP1(=S)c2c(C)nn(CCC#N)c2N=C(c2ccccc2F)N1C (stereo not given) | inactive: 11.8% |
| O=P(Nc1nccs1)(Oc1ccccc1)Oc1ccccc1 | inactive: -13.8% |
| O=P(Nc1nccs1)(c1ccccc1)c1nc2ccccc2s1 (stereo not given) | inactive: -18.8% |
| O=C(O)COc1ccc([As](=O)(O)O)cc1[N+](=O)[O-] | inactive: 0.54% |
| Nc1ccccc1[As](=O)(O)c1ccccc1 | inactive: 8.88% |
| CC(C)c1ccc(OP(=O)(Nc2ccccn2)Oc2ccccc2F)cc1 (stereo not given) | inactive: -20.1% |
| ClCCSc1nnc(-c2cccnc2)o1 | inactive: -0.597% |
| CC(C)NC(=O)NP(=O)(Oc1ccccc1)Oc1ccccc1 | inactive: 11.7% |
| O=C(OC1CN2CCC1CC2)c1cccc2[nH]cnc12 (stereo not given) | inactive: 5.68% |

| Compound | inhibition |
| --- | --- |
| CCN(CC)C(=S)SC(NC=O)C(Cl)(Cl)Cl (stereo not given) | inactive: -26% |
| O=[N+]([O-])c1cc([N+](=O)[O-])c(-c2ccn[nH]2)s1 | inactive: -3.52% |
| C[As](=O)(O)c1cccc(C(=O)O)c1 | inactive: -4.02% |
| O=[As](O)(c1ccc(O)cc1)c1ccccc1O | inactive: -0.319% |
| COc1cc(C(=O)NCC2(N3CCOCC3)CCCCC2)ccc1OCC(C)C | inactive: 6.37% |
| Cc1ccc2nc3c(c(C)c2c1)CC(C(Cl)Cl)S3 (stereo not given) | inactive: -25.9% |
| Cc1ccc(OP(=O)(Nc2ccc([N+](=O)[O-])cn2)Oc2ccc(C)cc2)cc1 | inactive: -17.5% |
| COc1ccc(N/C(=N/P(=O)(N2CCOCC2)N2CCOCC2)N2CCOCC2)cc1 | inactive: 19.7% |
| O=C(OC1CN2CCC1CC2)C12CC3CC(CC(C3)C1)C2 (stereo not given) | inactive: 10.5% |
| Cc1cc(=O)[nH]c(N[N+](=O)[O-])n1 | inactive: -9.63% |
| Cc1c2c(nc3ccccc13)SC(C(Cl)Cl)C2 (stereo not given) | inactive: -13.5% |
| COc1ccc2nc(NP(=O)(c3ccccc3)c3ccccc3)sc2c1 | inactive: 8.06% |
| COc1cc(I)ccc1[As](=O)(O)O | inactive: 2.8% |
| CCOC(=O)c1ccc(NC(=O)C(C)(CCl)SC)cc1 (stereo not given) | inactive: -25.6% |
| O=C(OC1CN2CCC1CC2)c1cccc([N+](=O)[O-])c1 (stereo not given) | inactive: 4.12% |
| CCC(C)N(CC(C)C)C(=S)SC(NC(C)=O)C(Cl)(Cl)Cl (stereo not given) | inactive: 11.9% |
| COP1(=S)c2c(C)nn(CCC#N)c2N=C(c2ccc(F)cc2)N1C (stereo not given) | inactive: 0.129% |
| O=C(COc1ccccc1)OC1CN2CCC1CC2 (stereo not given) | inactive: -0.982% |
| O=C(Nc1ccncc1[N+](=O)[O-])c1ccc([N+](=O)[O-])cc1[N+](=O)[O-] | inactive: 6.46% |
| CCOC(=O)Nc1cccc([As](=O)(O)O)c1 | inactive: -6.73% |
| Cc1cc(SC(NC=O)C(Cl)(Cl)Cl)ncn1 (stereo not given) | inactive: 3.39% |
| O=P(Nc1ccccn1)(c1cccc2ccccc12)c1cccc2ccccc12 | inactive: -10.4% |
| CCOC(=O)Nc1ccc([As](=O)(O)O)c(O)c1 | inactive: 25.8% |
| CCCCOc1ccc(C(=O)NCC2(N3CCCCC3)CCCCC2)cc1OC | inactive: -9.65% |
| Cc1cc(SC(NC(=O)c2ccccc2)C(Cl)(Cl)Cl)nc(C(C)C)n1 (stereo not given) | inactive: 4.75% |

| Compound | inhibition |
| --- | --- |
| CC(C)(C)C(=O)NC(Sc1ccncn1)C(Cl)(Cl)Cl (stereo not given) | inactive: 22.5% |
| O=[N+]([O-])c1ncn(CCn2ncnc2[N+](=O)[O-])n1 | inactive: 10.7% |
| O=[N+]([O-])c1cccc(NC2=NCC(CBr)S2)c1 (stereo not given) | inactive: -11.9% |
| O=C(Nc1cc([As](=O)(O)O)ccc1O)c1ccccc1 | inactive: 3.23% |
| Nc1ccc([As](=O)(O)c2ccc(N)cc2)cc1 | inactive: 13.4% |
| C[N+]1=C2C=CC=CC=C2SC12C([N+](=O)[O-])=CC([N+](=O)[O-])=C[C-]2[N+](=O)[O-] (stereo not given) | inactive: -33% |
| CCN(/C(=N/P(=O)(N1CCOCC1)N1CCOCC1)N1CCOCC1)c1ccc(OC)cc1 | inactive: 2.57% |
| CC(C)=N/N=C(\N)N[N+](=O)[O-] | inactive: 1.64% |
| CN(C)C(=O)OCCc1n(C)cc[n+]1C | inactive: 12.7% |
| CC1CCN(C(=O)Oc2c(Cl)cc(Cl)c3cccnc23)CC1 | inactive: 1.93% |
| COc1ccc(C2=NCC(CBr)S2)cc1 (stereo not given) | inactive: -6.68% |
| CC(=O)N1C2C3N(C(C)=O)C1C1N(C(C)=O)C(C(N1C(C)=O)N3C(C)=O)N2C(C)=O | inactive: 8.87% |
| O=[N+]([O-])c1cccc2n[nH]nc12 | inactive: -27.1% |
| Cc1ccc(NP(=O)(Oc2ccccc2)Oc2ccccc2)nc1 | inactive: -18.6% |
| O=[N+]([O-])c1cc([N+](=O)[O-])c(CCNc2ccccc2)c([N+](=O)[O-])c1 | inactive: 1.32% |
| CCc1nc2c(n1)c1c(non1O)c1c2no[n+]1[O-] | inactive: -43.6% |
| Nc1cc(N)c2nonc2c1[N+](=O)[O-] | inactive: 3.29% |
| CC(C)CC(=O)NC(Sc1ccc(Cl)cc1)C(Cl)(Cl)Cl (stereo not given) | inactive: -8.58% |
| Oc1ccccc1CNc1ccccn1 | inactive: 12.5% |
| O=C(NC(Sc1ccncn1)C(Cl)(Cl)Cl)c1ccccc1 (stereo not given) | inactive: 4.07% |
| Cc1c2non([O-])c-2c(C)[n+](=O)[n+]1[O-] | inactive: 2.9% |
| NC(=O)c1cc([N+](=O)[O-])cc([N+](=O)[O-])c1N | inactive: 9.15% |
| CN(C(=O)Cc1ccc(Cl)c(Cl)c1)[C@H]1CCCC[C@H]1N1CCCC1 | inactive: 21% |
| Cc1ccc(N/C(=N/P(=O)(N2CCOCC2)N2CCOCC2)N2CCOCC2)cc1 | inactive: 5.73% |
| COc1ccccc1OP(=O)(Nc1ccc(C)cn1)Oc1ccccc1OC | inactive: -4.3% |
